In PubChem BioAssay AID434977 (Johns Hopkins Ion Channel Center, 2010):
This is a selection; strong and weak results do not stand in their true shares. Activity calls are given as the source filed them.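 The calls were made as follows: active = calcium signal rise above buffer-control mean plus 5 SD in both duplicates, and also a hit in the primary screen; inactive = the rest.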

Sequences of proteins named here, by UniProt entry; tags and fusion partners are left off. A change or cut given only in a name is not applied to a line headed by its entry.
UniProt Q9QUQ5: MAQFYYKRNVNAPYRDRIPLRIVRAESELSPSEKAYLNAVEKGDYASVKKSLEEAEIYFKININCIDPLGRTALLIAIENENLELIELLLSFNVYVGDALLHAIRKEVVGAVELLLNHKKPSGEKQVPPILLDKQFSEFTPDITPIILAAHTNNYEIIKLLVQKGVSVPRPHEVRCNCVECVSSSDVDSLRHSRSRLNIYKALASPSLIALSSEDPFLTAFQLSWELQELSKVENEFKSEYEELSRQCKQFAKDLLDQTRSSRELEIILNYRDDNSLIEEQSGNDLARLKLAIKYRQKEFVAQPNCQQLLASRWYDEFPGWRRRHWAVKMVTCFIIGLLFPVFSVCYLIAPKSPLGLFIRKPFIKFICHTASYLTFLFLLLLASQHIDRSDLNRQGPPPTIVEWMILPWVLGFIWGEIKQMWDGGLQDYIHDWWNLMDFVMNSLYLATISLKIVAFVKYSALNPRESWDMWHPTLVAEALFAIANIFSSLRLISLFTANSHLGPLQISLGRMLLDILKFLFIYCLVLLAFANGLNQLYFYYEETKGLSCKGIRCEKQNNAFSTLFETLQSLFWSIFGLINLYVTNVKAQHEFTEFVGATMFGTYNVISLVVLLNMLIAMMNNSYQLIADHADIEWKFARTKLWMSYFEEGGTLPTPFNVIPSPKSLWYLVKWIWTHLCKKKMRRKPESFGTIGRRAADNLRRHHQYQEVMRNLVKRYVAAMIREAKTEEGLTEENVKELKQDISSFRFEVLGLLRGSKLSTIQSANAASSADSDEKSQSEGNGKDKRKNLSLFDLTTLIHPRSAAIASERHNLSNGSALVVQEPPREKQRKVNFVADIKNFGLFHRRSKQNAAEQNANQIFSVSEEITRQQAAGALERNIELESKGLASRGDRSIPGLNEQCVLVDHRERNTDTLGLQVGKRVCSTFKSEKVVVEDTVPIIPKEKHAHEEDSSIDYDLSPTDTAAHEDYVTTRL

Biological target: Short transient receptor potential channel 4 (Mus musculus) (UniProt Q9QUQ5)
Experiment: calcium flux activators in TRPC4/5HT1a cells, counter-screen for TRPC4 activator project, cell-based, second counter screen, HEK293 TRPC4/5HT1a, Fluo-4 (AID 434977);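 also: plate controls were assay buffer for no effect and maximal serotonin response for full effect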
Conditions: Fluo-4 calcium flux, at 10 µM, stronger effect = higher value

Structure (SMILES) | activation
CN(C)C1(CNC(=O)c2ccc(Cl)c(S(N)(=O)=O)c2)CCCCC1 | inactive: 0%
